Measurements from ChEMBL document CHEMBL2169845 (J Med Chem, 2012).

Legend:
[1] = Cytotoxicity against human NCI-H146 cells assessed as growth inhibition after 4 days by WST-8 assay; type: functional, cell-based; details: NCI-H146, 96 h
[2] = system: NCI-H1417; assay: Cytotoxicity against human H1417 cells assessed as growth inhibition after 4 days by WST-8 assay; type: functional, cell-based; details: NCI-H1417, 96 h

Cc1c(C(=O)O)c(-c2cccc(N3CCN(c4ccc(NS(=O)(=O)c5ccc(N[C@H](CCN(C)C)CSc6ccccc6)c(S(=O)(=O)C(F)(F)F)c5)cc4)CC3)c2)c(-c2ccc(Cl)cc2)n1C
IC50 [1]: 98 nM | IC50 [2]: 151 nM

Cc1c(C(=O)O)c(-c2cccc(N3CCN(c4ccc(NS(=O)(=O)c5ccc(N[C@H](CCN6CCOCC6)CSc6ccccc6)c(S(=O)(=O)C(F)(F)F)c5)cc4)CC3)c2)c(-c2ccc(Cl)cc2)n1C
IC50 [1]: 476 nM | IC50 [2]: 677 nM
